Paper PMC3030572, “Antamanide, a Derivative of Amanita phalloides, Is a Novel Inhibitor of the Mitochondrial Permeability Transition Pore” (PLoS ONE, 2011)

Tested on: recombinant CyP-D
Protocol: A, B, PTP opening of digitonized wild-type (A) or CyP-D knock-out (B) fibroblasts was measured with the whole-cell CRC assay. Experiments were started by the addition of digitonized cells (not shown) followed by pulses of Ca^2+ (5 µM each) and are plotted as in Figure 1B. The use of AA is shown with a red trace. Alamethicin (Alm, 1 µM) was added at the end of each measurement to fully release Ca^2+ from intracellular stores. […] D, isomerase activity assay (see Materials and Methods): after addition of the substrate peptide N-succinyl-Ala-Ala-cis-trans-Pro-Phe-p-nitroanilide (arrow), chimotrypsin cleaves the trans-isomeric form, causing a rise in absorbance.

cyclosporin A [CsA]
inhibition of CyP-D peptidyl-prolyl cis-trans isomerase activity: act as inhibitors of the enzymatic activity of CyP-D
